Earlier results on 1 compound are cited in patent US12678402B2, “Treatment with powdered intranasal epinephrine” (Nasus Pharma Ltd., priority 2020, dated 2026).

Each structure is given as a SMILES string. Read-outs that look alike come from different tables or passages of the source.

Consider `CNC[C@H](O)c1ccc(O)c(O)c1` [Epinephrine], for which the AUC0-120 min reads like this: (0.3 mg IM, listed as Epinephrine 0.3 mg IM) 18.3 ± 9.3 ng·min/mL; (5 mg IN, listed as intranasal epinephrine) 18.3 ng·min/mL. Moreover, under “5 mg IN”, the “Cmax Mean (±SD)” value was 0.386 ± 0.152 ng/mL.
